In US6570013B2, “Salts of zopolrestat” (dated 2003) one finds water solubility data, which are given here for one substance.

This data set in a line: Measurement of water solubility (distilled water added until clear solution). Conditions: weight of salt divided by volume of clear solution.

As for “[4-oxo-(5-trifluoromethyl-benzothiazol-2-ylmethyl)-3,4-dihydro-phthalazin-1-yl]-acetic acid triethanolamine salt”, the water solubility stood at 6600 µg/mL.
